For the assay, the target named is T1, 5-HT1AR (Rattus norvegicus, UniProt P19327).
T1 construct: from tissue; hippocampus per the main-text methods
Nature of the assay: [35S]GTPγS functional 5-HT1A assay in rat hippocampal membranes. It is filed as biochemical. The method, then: Male Sprague–Dawley rats were decapitated and their brains removed and placed on ice. The hippocampi (for the functional 5-HT1A receptor assay) or frontal cortexes (for the competitive 5-HT2A and 5-HT2C receptor assays) were dissected and homogenized with a glass homogenizer in 30 vol. ice-cold TED buffer (50 mMTris-HCl, 1 mM EDTA, 1 mM dithiotheritol, pH 7.4). Next, the homogenate was centrifuged at 21 000g for 30 min at 4 °C. The pellet was suspended in 30 vol TED buffer (pH 7.4) and incubated in a water bath for 10 min at 37 °C to remove endogenous ligands. The suspension was centrifuged again at 21 000g for 30 min at 4 °C. […]
The [^35S]GTPγS assay was performed according to the method described previously.[49] […] Nonspecific binding was determined with 100 μM of unlabeled GTPγS. […] The radioactivity was counted in a Trilux MicroBeta^2 counter (PerkinElmer, USA). The data were analyzed with GraphPad Prism 5.0 software (GraphPad Software, San Diego California USA, www.graphpad.com). […]
The curves were fitted with a one-site nonlinear regression model. Efficacy (Emax) and potency (pEC50) were calculated from […] from three separate experiments and expressed as the means ± SEM. […] The differences in compound potency and efficacy were evaluated with one-way ANOVA followed by the Bonferroni’s post-hoc test. […]

The chains behind the UniProt entries cited, without tags or fusion partners.
UniProt P19327, whole entry: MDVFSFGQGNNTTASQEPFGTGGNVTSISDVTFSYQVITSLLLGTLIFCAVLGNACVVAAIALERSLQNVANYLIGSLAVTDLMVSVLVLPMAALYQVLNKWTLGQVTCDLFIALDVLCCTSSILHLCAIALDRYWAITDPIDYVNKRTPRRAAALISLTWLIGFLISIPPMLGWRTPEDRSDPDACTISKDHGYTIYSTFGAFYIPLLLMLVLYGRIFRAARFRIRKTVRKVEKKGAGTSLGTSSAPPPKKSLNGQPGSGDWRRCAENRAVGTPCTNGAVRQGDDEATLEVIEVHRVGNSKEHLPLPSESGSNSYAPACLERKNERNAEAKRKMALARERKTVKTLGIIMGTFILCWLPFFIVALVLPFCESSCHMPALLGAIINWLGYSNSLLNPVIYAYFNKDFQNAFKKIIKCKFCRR

The structures appear in SMILES notation.

For the compound `NCCc1c[nH]c2ccc(O)cc12` [serotonin, reference compound], the EC50 is 158 nM.

For orientation: EC50 means the concentration at which the effect is half-maximal. High values mean weaker potency, low ones greater potency.

Values taken from publication PMC8016166, “Identification of a Potent and Selective 5-HT1A Receptor Agonist with In Vitro and In Vivo Antinociceptive Activity” (ACS Chemical Neuroscience, 2020).
